Literature values in patent publication US20160338955A1, “ANTIGEN-SPECIFIC IMMUNOTHERAPY USING TOLERIZING LIPOSOMES” (PLS-Design GmbH, priority 2015, published 2016).

Details: 45 mg CMS/kg/day in two divided doses, one to two weeks; cited from earlier work

Substance: choline magnesium trisalicylate [CMS]
- steady state serum salicylate level, mean value: 213 ± 10 mg/L
